The subject of the experiment is MIA PaCa-2 cells. The experiment in a line: MIA PaCa-2 tumor xenograft, tumor volume / tumor growth inhibition. The settings on record: Study Day 27; Table 1. The format is in vivo, mice. Here is the method:
Immunocompromised nude/nude mice are inoculated in the right hind flank with cells or patient derived tumor samples harboring a KRas G12C mutation. When tumor volumes reach between 200-400 mm^3 in size, the mice are divided into four groups of 4-12 mice each. The first group is administered vehicle only. […] An optional group is administered with a single agent dose of the MEK inhibitor (VS-6766) that yields less than maximal biological effect. The final group is administered the single agent dose of the KRas G12C inhibitor in combination with the single agent dose of the SOS1 inhibitor or with single agent dose of the KRas G12C inhibitor in combination with the single agent dose of the SOS1 inhibitor and the single agent VS-6766. […] Tumor volumes are measured using a caliper every two-three days and tumor volumes are calculated by the formula: […].
16-32 nude/nude, Balb/c nude, or NOD/SCID mice per study were inoculated in the right hind limb with 5×10^6 of the indicated cell line or tumor fragment. […] An additional combination group with 0.3 mg/kg MEK inhibitor VS-6766 was included for the triple combination study.

As to `C=C(F)C(=O)N1CCN(c2nc(OC[C@@H]3CCCN3C)nc3c2CCN(c2cccc4cccc(Cl)c24)C3)C[C@@H]1CC#N` [Adagrasib, 2-[(2S)-4-[7-(8-chloro-1-naphthyl)-2-[[(2S)-1-methylpyrrolidin-2-yl]methoxy]-6,8-dihydro-5H-pyrido[3,4-d]pyrimidin-4-yl]-1-(2-fluoroprop-2-enoyl)piperazin-2-yl]acetonitrile, reference compound], the “Average Tumor Volumes” value is on record as 493 mm^3.

These data come from US12280055B2, “Combination therapies” (Mirati Therapeutics, Inc., priority 2021, dated 2025).
